Data on 2 molecules can be found in patent US20100008928A1 (Takeda / Millennium, published 2010).

Sequences of proteins named here, by UniProt entry; tags and fusion partners are left off. Residues count along the entry.
UniProt Q9NQS3, 58-549 limits assumed: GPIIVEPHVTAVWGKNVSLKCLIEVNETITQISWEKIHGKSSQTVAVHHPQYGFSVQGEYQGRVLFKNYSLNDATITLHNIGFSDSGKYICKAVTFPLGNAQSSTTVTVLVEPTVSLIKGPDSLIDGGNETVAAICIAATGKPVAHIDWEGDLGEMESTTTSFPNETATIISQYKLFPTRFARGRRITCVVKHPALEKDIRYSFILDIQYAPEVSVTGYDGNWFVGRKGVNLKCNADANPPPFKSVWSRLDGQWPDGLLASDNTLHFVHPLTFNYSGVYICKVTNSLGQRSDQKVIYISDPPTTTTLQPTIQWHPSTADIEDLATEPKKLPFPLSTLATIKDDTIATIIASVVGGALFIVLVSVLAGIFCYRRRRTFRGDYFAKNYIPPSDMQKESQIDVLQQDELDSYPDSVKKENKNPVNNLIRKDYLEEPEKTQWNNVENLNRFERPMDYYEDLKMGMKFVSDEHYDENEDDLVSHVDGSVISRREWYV

Where a chain is given by its changes, count along the chain named. Read-outs that look alike come from different tables or passages of the source.

What all share (experiment): FCM
Assay [1] deals with T1, nectin-2 Ig2 domain-deficient protein (human, UniProt Q92692 32-538).
T1 construct: transient in CHO-K1; also called delta-Ig2; Nectin-2ΔIg2
T1 sequence: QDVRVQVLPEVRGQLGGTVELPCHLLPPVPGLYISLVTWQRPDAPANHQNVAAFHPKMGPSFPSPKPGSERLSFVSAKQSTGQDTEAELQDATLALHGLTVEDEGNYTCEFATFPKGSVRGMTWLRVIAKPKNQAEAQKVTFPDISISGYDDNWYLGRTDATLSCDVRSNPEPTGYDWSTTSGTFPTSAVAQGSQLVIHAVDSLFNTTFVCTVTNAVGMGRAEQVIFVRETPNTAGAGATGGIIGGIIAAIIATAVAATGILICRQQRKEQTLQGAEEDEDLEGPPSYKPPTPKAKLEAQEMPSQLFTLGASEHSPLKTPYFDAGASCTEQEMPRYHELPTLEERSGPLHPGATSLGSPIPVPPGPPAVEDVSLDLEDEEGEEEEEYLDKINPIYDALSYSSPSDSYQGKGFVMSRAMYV

The target of the next assay is T2, human nectin-1 protein (human, UniProt Q15223 31-517).
T2 construct: transient in CHO-K1 from pCMV-Tag4-Nectin-1
T2 sequence: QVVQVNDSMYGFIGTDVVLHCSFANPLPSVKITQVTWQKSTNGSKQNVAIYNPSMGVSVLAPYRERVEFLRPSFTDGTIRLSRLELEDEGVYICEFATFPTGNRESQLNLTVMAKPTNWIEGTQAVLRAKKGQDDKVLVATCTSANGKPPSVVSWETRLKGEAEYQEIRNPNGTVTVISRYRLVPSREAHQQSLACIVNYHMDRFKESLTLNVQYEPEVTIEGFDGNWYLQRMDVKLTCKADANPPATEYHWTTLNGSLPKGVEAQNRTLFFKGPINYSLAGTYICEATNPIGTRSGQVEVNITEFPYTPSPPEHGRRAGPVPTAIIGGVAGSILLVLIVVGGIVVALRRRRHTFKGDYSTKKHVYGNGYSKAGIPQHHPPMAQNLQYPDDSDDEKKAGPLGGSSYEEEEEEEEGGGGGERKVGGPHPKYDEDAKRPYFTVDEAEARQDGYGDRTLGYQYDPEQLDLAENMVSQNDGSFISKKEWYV

Assay [2] deals with T3, human nectin-3 protein (human, UniProt Q9NQS3 58-549).
T3 construct: transient in CHO-K1 from pCMV-Tag4-Nectin-3

Another assay deals with T4, human nectin-4 protein (human, UniProt Q96NY8 32-510).
T4 construct: transient in CHO-K1 from pCMV-Tag4-Nectin-4
T4 sequence: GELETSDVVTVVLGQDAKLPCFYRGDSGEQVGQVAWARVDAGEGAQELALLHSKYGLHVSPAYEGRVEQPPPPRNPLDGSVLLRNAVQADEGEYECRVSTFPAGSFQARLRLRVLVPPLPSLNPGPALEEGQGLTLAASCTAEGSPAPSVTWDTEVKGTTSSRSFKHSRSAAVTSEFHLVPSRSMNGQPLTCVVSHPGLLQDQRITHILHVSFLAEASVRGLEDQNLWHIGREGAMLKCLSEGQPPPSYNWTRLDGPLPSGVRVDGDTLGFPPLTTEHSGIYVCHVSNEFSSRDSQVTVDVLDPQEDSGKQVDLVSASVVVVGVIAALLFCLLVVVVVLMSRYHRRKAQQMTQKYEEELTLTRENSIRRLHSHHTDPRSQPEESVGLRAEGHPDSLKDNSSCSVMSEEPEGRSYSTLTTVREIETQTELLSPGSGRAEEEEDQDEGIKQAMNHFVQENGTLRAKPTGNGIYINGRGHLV

The next assay addresses T5, human Nec1-5 protein (human, UniProt P15151 21-417).
T5 construct: transient in CHO-K1 from pCMV-Tag4-Nec1-5; also called Necl-5
T5 sequence: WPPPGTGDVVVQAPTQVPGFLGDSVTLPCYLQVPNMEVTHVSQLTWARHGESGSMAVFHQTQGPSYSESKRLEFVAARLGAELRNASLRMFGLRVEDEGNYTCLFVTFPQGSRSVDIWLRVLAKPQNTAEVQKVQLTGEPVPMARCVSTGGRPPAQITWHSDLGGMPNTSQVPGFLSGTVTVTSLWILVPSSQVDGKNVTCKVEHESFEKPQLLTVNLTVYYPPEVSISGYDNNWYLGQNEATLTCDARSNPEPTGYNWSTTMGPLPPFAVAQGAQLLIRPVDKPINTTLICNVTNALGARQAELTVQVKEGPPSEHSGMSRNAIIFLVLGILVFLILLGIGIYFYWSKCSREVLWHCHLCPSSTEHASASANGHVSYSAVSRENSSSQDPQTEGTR

For assay [3], the target named is T1, nectin-2 Ig2 domain-deficient protein. This is another data set of the same source.
Assay [4] addresses T3, human nectin-3 protein. The source holds these as a separate data set.

B1: Nec1-803-2 (antibody, human IgG1, V domains shown)
VH: QVQLQESGPGLVKPSETLSLTCTVSGGSISSYYWTWIRQPPGKGLEWIGYIYYSGSTNSNPSLKSRVTISVDTSKNQFSLKLSSVTAADTAVYYCTRDPGEDYNYGMDVWGQGTTVTVSS
VL: AIQLTQSPSSLSASVGDRVTITCRASQGISSALAWYQQKPGKAPKLLIYDASSLESGVPSRFSGSGSGTDFTLTISSLQPEDFATYYCQQFNSYPRTFGQGTKVEIK
On to B1, for which the median fluorescence ratio was 5.3 in assay [1]; 1.2 with human nectin-1 protein; 1.2 in the assay with human nectin-3 protein [2]; 1.1 in the assay with human nectin-4 protein; 1.1 with human Nec1-5 protein; 6.2 in assay [3]. In addition, in the assay with human nectin-3 protein [4], the binding result is recorded as “no binding (tested: 6 µg/mL)”.

B2: Nec1-834-1 (antibody, human IgG1, V domains shown)
VH: B1 VH with G26S, G27A, T35S, S59Y, V71I, T96A, P99A, N104S
VL: AIQLTQSPSSLSASVGDRVTITCRASQGISSALAWYQQKPGKAPKLLIYDASSLESGVPSRFSGSGSGTDFTLTISSLQPEDFATYYCQQFNSYRTFGQGTKVEIK
notes: human IgG1/k from hybridoma FERM BP-10428
On to B2, for which the median fluorescence ratio stood at 1.2 in the assay with human nectin-1 protein, 1.2 in the assay with human nectin-3 protein [2], 1.1 with human nectin-4 protein and 1 with human Nec1-5 protein. Besides, the binding result with human nectin-3 protein [4] is given as “no binding (tested: 6 µg/mL)”.
